# Assay results published in US10377789B2, “Oligonucleotide and artificial nucleoside having guanidine bridge” (OSAKA UNIVERSITY, priority 2012, dated 2019).
# The chains behind the UniProt entries cited, without tags or fusion partners. Residues count along the entry.
# UniProt J3SEZ3, 24-851 limits assumed: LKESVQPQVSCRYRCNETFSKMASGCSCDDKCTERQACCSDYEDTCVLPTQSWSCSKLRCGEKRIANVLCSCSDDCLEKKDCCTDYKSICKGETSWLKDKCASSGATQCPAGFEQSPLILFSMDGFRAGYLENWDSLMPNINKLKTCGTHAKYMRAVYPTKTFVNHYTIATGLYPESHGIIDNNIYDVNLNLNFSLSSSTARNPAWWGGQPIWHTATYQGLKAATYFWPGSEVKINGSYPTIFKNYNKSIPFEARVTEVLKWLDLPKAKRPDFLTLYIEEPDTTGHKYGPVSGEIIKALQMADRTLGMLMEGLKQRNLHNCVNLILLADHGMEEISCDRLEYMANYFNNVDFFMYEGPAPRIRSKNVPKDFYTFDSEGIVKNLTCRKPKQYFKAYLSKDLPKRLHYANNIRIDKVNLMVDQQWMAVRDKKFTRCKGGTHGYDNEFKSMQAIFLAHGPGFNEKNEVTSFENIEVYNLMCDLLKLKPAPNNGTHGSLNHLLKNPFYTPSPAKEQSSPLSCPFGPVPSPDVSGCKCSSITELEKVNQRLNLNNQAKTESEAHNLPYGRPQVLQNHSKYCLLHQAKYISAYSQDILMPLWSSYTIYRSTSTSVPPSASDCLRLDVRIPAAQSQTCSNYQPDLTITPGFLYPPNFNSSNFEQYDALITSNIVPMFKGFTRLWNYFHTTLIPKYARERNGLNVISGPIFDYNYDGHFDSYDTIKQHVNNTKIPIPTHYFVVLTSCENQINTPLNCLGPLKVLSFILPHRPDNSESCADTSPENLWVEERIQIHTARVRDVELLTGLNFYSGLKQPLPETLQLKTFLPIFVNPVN
# Target: 3′-exonuclease (Crotalus admanteus venom phosphodiesterase: CAVP) (Crotalus adamanteus, UniProt J3SEZ3)
substance,measurement,value
5′-d(TTTTTTTTT)-3′ [Compound 13],percentage of unreacted oligonucleotides,≥ 50%
